From US9700644B2, “One part, solids containing decontamination blend composition” (dated 2017)

Assay: Storage stability of aspirin at 40° C. with or without citric acid coating
Details: 8 weeks of storage

## CC(=O)Oc1ccccc1C(=O)O
  % Aspirin Lost (8 weeks): 8.4%
